Assay results taken from US20140100156A1 (SANOFI, priority 2012, published 2014).
pEC50: −log10 of the molar value. Where two headings read alike, the source gives them in different places.

Protein sequences, listed by entry. Tags and fused reporters are not part of them. Residues count along the entry.
UniProt P47871, 26-477: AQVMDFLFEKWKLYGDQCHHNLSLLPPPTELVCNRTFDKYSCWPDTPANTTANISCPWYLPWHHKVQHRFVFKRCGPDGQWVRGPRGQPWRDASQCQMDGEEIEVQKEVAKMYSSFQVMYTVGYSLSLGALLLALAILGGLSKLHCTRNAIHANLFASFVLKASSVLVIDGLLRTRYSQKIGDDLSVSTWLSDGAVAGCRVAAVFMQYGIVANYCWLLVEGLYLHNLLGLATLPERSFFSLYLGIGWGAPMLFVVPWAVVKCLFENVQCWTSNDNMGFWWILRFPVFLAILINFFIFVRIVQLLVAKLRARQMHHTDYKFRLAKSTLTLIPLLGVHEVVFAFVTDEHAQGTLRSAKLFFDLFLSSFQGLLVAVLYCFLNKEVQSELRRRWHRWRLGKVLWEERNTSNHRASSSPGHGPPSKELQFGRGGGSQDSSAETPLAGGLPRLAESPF
UniProt P43220, 24-463: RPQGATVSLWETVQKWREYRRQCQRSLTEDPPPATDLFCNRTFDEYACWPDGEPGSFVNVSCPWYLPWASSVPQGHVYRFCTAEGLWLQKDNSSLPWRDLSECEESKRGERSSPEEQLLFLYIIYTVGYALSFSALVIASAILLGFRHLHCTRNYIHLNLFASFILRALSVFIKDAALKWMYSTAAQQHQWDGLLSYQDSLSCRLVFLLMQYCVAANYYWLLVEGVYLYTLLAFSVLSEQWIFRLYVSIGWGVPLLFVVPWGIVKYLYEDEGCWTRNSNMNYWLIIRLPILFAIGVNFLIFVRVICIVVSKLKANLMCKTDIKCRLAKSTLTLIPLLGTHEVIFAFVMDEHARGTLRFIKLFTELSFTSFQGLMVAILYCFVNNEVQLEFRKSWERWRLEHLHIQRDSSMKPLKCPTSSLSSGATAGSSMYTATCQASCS

Assays:
human glucagon receptor = target: T1, human glucagon receptor (Homo sapiens, UniProt P47871); test: cAMP response (HTRF) of HEK-293 cells stably expressing human glucagon receptor; type: cell-based; settings: read-out: EC50 hGlucagon-R
T1 construct: expressed in transfected cells; host or cells: HEK-293

human GLP-1 receptor = target: T2, human GLP-1 receptor (Homo sapiens, UniProt P43220); test: cAMP response (HTRF) of HEK-293 cells stably expressing human GLP-1 receptor; type: cell-based; settings: read-out: EC50 hGLP-1R
T2 construct: expressed in transfected cells; host or cells: HEK-293

[1] = Table 8, comparison testing of position 14

| Compound | pEC50 (human glucagon receptor; Table 5, cAMP, HEK-293) | pEC50 (human GLP-1 receptor; Table 5, cAMP, HEK-293) | pEC50 (human glucagon receptor; [1]) | pEC50 (human GLP-1 receptor; [1]) |
| --- | --- | --- | --- | --- |
| CCCCCCCCCCCCCCCC(=O)N[C@@H](CCC(=O)NCCCC[C@H](NC(=O)[C@H](CCC(N)=O)NC(=O)[C@H](CCCCN)NC(=O)[C@H](CO)NC(=O)[C@H](CC(C)C)NC(=O)[C@H](CC(=O)O)NC(=O)[C@H](CO)NC(=O)[C@@H](NC(=O)[C@H](Cc1ccccc1)NC(=O)[C@@H](NC(=O)CNC(=O)[C@H](CCC(N)=O)NC(=O)[C@@H](CO)NC(=O)[C@@H](N)Cc1c[nH]cn1)[C@@H](C)O)[C@@H](C)O)C(=O)N[C@@H](CC(=O)O)C(=O)N[C@@H](CO)C(=O)N[C@@H](CCCCN)C(=O)N[C@@H](C)C(=O)N[C@@H](C)C(=O)N[C@@H](CCC(N)=O)C(=O)N[C@@H](CC(=O)O)C(=O)N[C@@H](Cc1ccccc1)C(=O)N[C@H](C(=O)N[C@@H](CCC(=O)O)C(=O)N[C@@H](Cc1c[nH]c2ccccc12)C(=O)N[C@@H](CC(C)C)C(=O)N[C@@H](CCCCN)C(=O)N[C@@H](CO)C(=O)NCC(=O)NCC(=O)N1CCC[C@H]1C(=O)N[C@@H](CO)C(=O)N[C@@H](CO)C(=O)NCC(=O)N[C@@H](C)C(=O)N1CCC[C@H]1C(=O)N1CCC[C@H]1C(=O)N1CCC[C@H]1C(=O)N[C@@H](CO)C(N)=O)[C@@H](C)CC)C(=O)O [compound 173] | 11.23 | 11.24 |  |  |
| CCCCCCCCCCCCCCCCCC(=O)N[C@@H](CCC(=O)NCCCC[C@H](NC(=O)[C@H](CCC(N)=O)NC(=O)[C@H](CCCCN)NC(=O)[C@H](CO)NC(=O)[C@H](CC(C)C)NC(=O)[C@H](CC(=O)O)NC(=O)[C@H](CO)NC(=O)[C@@H](NC(=O)[C@H](Cc1ccccc1)NC(=O)[C@@H](NC(=O)CNC(=O)[C@H](CCC(N)=O)NC(=O)C(C)(C)NC(=O)[C@@H](N)Cc1c[nH]cn1)[C@@H](C)O)[C@@H](C)O)C(=O)N[C@@H](CC(=O)O)C(=O)N[C@@H](CCC(=O)O)C(=O)N[C@@H](CCC(N)=O)C(=O)N[C@@H](CCCNC(=N)N)C(=O)N[C@@H](C)C(=O)N[C@@H](CCCCN)C(=O)N[C@@H](CCC(=O)O)C(=O)N[C@@H](Cc1ccccc1)C(=O)N[C@H](C(=O)N[C@@H](CCC(=O)O)C(=O)N[C@@H](Cc1c[nH]c2ccccc12)C(=O)N[C@@H](CC(C)C)C(=O)N[C@@H](CCCCN)C(=O)N[C@@H](CO)C(=O)NCC(=O)NCC(=O)N1CCC[C@H]1C(=O)N[C@@H](CO)C(=O)N[C@@H](CO)C(=O)NCC(=O)N[C@@H](C)C(=O)N1CCC[C@H]1C(=O)N1CCC[C@H]1C(=O)N1CCC[C@H]1C(=O)N[C@@H](CO)C(N)=O)[C@@H](C)CC)C(=O)O [compound 174] | 11.72 | 11.59 |  |  |
| CCCCCCCCCCCCCCCCCC(=O)N[C@@H](CCC(=O)NCCCC[C@H](NC(=O)[C@H](CCC(N)=O)NC(=O)[C@H](CCCCN)NC(=O)[C@H](CO)NC(=O)[C@H](CC(C)C)NC(=O)[C@H](CC(=O)O)NC(=O)[C@H](CO)NC(=O)[C@@H](NC(=O)[C@H](Cc1ccccc1)NC(=O)[C@@H](NC(=O)CNC(=O)[C@H](CCC(N)=O)NC(=O)C(C)(C)NC(=O)[C@@H](N)Cc1c[nH]cn1)[C@@H](C)O)[C@@H](C)O)C(=O)N[C@@H](CC(=O)O)C(=O)N[C@@H](CCC(=O)O)C(=O)N[C@@H](CCC(N)=O)C(=O)N[C@@H](CCCNC(=N)N)C(=O)N[C@@H](C)C(=O)N[C@@H](CCCCN)C(=O)N[C@@H](CC(=O)O)C(=O)N[C@@H](Cc1ccccc1)C(=O)N[C@H](C(=O)N[C@@H](CCC(=O)O)C(=O)N[C@@H](Cc1c[nH]c2ccccc12)C(=O)N[C@@H](CC(C)C)C(=O)N[C@@H](CCCCN)C(=O)N[C@@H](CO)C(=O)NCC(=O)NCC(=O)N1CCC[C@H]1C(=O)N[C@@H](CO)C(=O)N[C@@H](CO)C(=O)NCC(=O)N[C@@H](C)C(=O)N1CCC[C@H]1C(=O)N1CCC[C@H]1C(=O)N1CCC[C@H]1C(=O)N[C@@H](CO)C(N)=O)[C@@H](C)CC)C(=O)O [compound 175] | 11.51 | 11.60 |  |  |
| CC[C@H](C)[C@H](NC(=O)[C@H](Cc1ccccc1)NC(=O)[C@H](CC(=O)O)NC(=O)[C@H](CCC(N)=O)NC(=O)[C@H](C)NC(=O)[C@H](CCCNC(=N)N)NC(=O)[C@H](CCCNC(=N)N)NC(=O)[C@H](CO)NC(=O)[C@H](CC(=O)O)NC(=O)[C@H](CCSC)NC(=O)[C@H](CCC(N)=O)NC(=O)[C@H](CCCCN)NC(=O)[C@H](CO)NC(=O)[C@H](CC(C)C)NC(=O)[C@H](CC(=O)O)NC(=O)[C@H](CO)NC(=O)[C@@H](NC(=O)[C@H](Cc1ccccc1)NC(=O)[C@@H](NC(=O)CNC(=O)[C@H](CCC(N)=O)NC(=O)C(C)(C)NC(=O)[C@@H](N)Cc1c[nH]cn1)[C@@H](C)O)[C@@H](C)O)C(=O)N[C@@H](CCC(=O)O)C(=O)N[C@@H](Cc1c[nH]c2ccccc12)C(=O)N[C@@H](CC(C)C)C(=O)N[C@@H](CCCCN)C(=O)N[C@@H](CC(N)=O)C(=O)NCC(=O)NCC(=O)N1CCC[C@H]1C(=O)N[C@@H](CO)C(=O)N[C@@H](CO)C(=O)NCC(=O)N[C@@H](C)C(=O)N1CCC[C@H]1C(=O)N1CCC[C@H]1C(=O)N1CCC[C@H]1C(=O)N[C@@H](CO)C(N)=O [compound 182] |  |  | 9.38 | 11.24 |
| CC[C@H](C)[C@H](NC(=O)[C@H](Cc1ccccc1)NC(=O)[C@H](CC(=O)O)NC(=O)[C@H](CCC(N)=O)NC(=O)[C@H](C)NC(=O)[C@H](CCCNC(=N)N)NC(=O)[C@H](CCCNC(=N)N)NC(=O)[C@H](CO)NC(=O)[C@H](CC(=O)O)NC(=O)[C@H](CCCCN)NC(=O)[C@H](CCC(N)=O)NC(=O)[C@H](CCCCN)NC(=O)[C@H](CO)NC(=O)[C@H](CC(C)C)NC(=O)[C@H](CC(=O)O)NC(=O)[C@H](CO)NC(=O)[C@@H](NC(=O)[C@H](Cc1ccccc1)NC(=O)[C@@H](NC(=O)CNC(=O)[C@H](CCC(N)=O)NC(=O)[C@@H](CO)NC(=O)[C@@H](N)Cc1c[nH]cn1)[C@@H](C)O)[C@@H](C)O)C(=O)N[C@@H](CCC(=O)O)C(=O)N[C@@H](Cc1c[nH]c2ccccc12)C(=O)N[C@@H](CC(C)C)C(=O)N[C@@H](CCCCN)C(=O)N[C@@H](CC(N)=O)C(=O)NCC(=O)NCC(=O)N1CCC[C@H]1C(=O)N[C@@H](CO)C(=O)N[C@@H](CO)C(=O)NCC(=O)N[C@@H](C)C(=O)N1CCC[C@H]1C(=O)N1CCC[C@H]1C(=O)N1CCC[C@H]1C(=O)N[C@@H](CO)C(N)=O [compound 183] |  |  | 9.04 | 8.99 |
| CC[C@H](C)[C@H](NC(=O)[C@H](Cc1ccccc1)NC(=O)[C@H](CC(=O)O)NC(=O)[C@H](CCC(N)=O)NC(=O)[C@H](C)NC(=O)[C@H](CCCNC(=N)N)NC(=O)[C@H](CCCNC(=N)N)NC(=O)[C@H](CO)NC(=O)[C@H](CCC(=O)O)NC(=O)[C@H](CCSC)NC(=O)[C@H](CCC(N)=O)NC(=O)[C@H](CCCCN)NC(=O)[C@H](CO)NC(=O)[C@H](CC(C)C)NC(=O)[C@H](CC(=O)O)NC(=O)[C@H](CO)NC(=O)[C@@H](NC(=O)[C@H](Cc1ccccc1)NC(=O)[C@@H](NC(=O)CNC(=O)[C@H](CCC(N)=O)NC(=O)[C@@H](CO)NC(=O)[C@@H](N)Cc1c[nH]cn1)[C@@H](C)O)[C@@H](C)O)C(=O)N[C@@H](CCC(=O)O)C(=O)N[C@@H](Cc1c[nH]c2ccccc12)C(=O)N[C@@H](CC(C)C)C(=O)N[C@@H](CCCCN)C(=O)N[C@@H](C)C(=O)NCC(=O)NCC(=O)N1CCC[C@H]1C(=O)N[C@@H](CO)C(=O)N[C@@H](CO)C(=O)NCC(=O)N[C@@H](C)C(=O)N1CCC[C@H]1C(=O)N1CCC[C@H]1C(=O)N1CCC[C@H]1C(=O)N[C@@H](CO)C(N)=O [compound 184] |  |  | 9.00 | 10.07 |
| CC[C@H](C)[C@H](NC(=O)[C@H](Cc1ccccc1)NC(=O)[C@H](CC(=O)O)NC(=O)[C@H](CCC(N)=O)NC(=O)[C@H](C)NC(=O)[C@H](CCCNC(=N)N)NC(=O)[C@H](CCCNC(=N)N)NC(=O)[C@H](CO)NC(=O)[C@H](CC(=O)O)NC(=O)[C@H](CCSC)NC(=O)[C@H](CCC(N)=O)NC(=O)[C@H](CCCCN)NC(=O)[C@H](CO)NC(=O)[C@H](CC(C)C)NC(=O)[C@H](CC(=O)O)NC(=O)[C@H](CO)NC(=O)[C@@H](NC(=O)[C@H](Cc1ccccc1)NC(=O)[C@@H](NC(=O)CNC(=O)[C@H](CCC(N)=O)NC(=O)[C@@H](CO)NC(=O)[C@@H](N)Cc1c[nH]cn1)[C@@H](C)O)[C@@H](C)O)C(=O)N[C@@H](CCC(=O)O)C(=O)N[C@@H](Cc1c[nH]c2ccccc12)C(=O)N[C@@H](CC(C)C)C(=O)N[C@@H](CCCCN)C(=O)N[C@@H](CCCNC(=N)N)C(=O)NCC(=O)NCC(=O)N1CCC[C@H]1C(=O)N[C@@H](CO)C(=O)N[C@@H](CO)C(=O)NCC(=O)N[C@@H](C)C(=O)N1CCC[C@H]1C(=O)N1CCC[C@H]1C(=O)N1CCC[C@H]1C(=O)N[C@@H](CO)C(N)=O [compound 185] |  |  | 9.58 | 10.12 |
| CC[C@H](C)[C@H](NC(=O)[C@H](Cc1ccccc1)NC(=O)[C@H](CC(=O)O)NC(=O)[C@H](CCC(N)=O)NC(=O)[C@H](C)NC(=O)[C@H](CCCNC(=N)N)NC(=O)[C@H](CCCNC(=N)N)NC(=O)[C@H](CO)NC(=O)[C@H](CC(=O)O)NC(=O)[C@H](CCSC)NC(=O)[C@H](CCC(N)=O)NC(=O)[C@H](CCCCN)NC(=O)[C@H](CO)NC(=O)[C@H](CC(C)C)NC(=O)[C@H](CC(=O)O)NC(=O)[C@H](CO)NC(=O)[C@@H](NC(=O)[C@H](Cc1ccccc1)NC(=O)[C@@H](NC(=O)CNC(=O)[C@H](CCC(N)=O)NC(=O)[C@@H](CO)NC(=O)[C@@H](N)Cc1c[nH]cn1)[C@@H](C)O)[C@@H](C)O)C(=O)N[C@@H](CCC(=O)O)C(=O)N[C@@H](Cc1c[nH]c2ccccc12)C(=O)N[C@@H](CC(C)C)C(=O)N[C@@H](CCCCN)C(=O)N[C@@H](CCCCN)C(=O)NCC(=O)NCC(=O)N1CCC[C@H]1C(=O)N[C@@H](CO)C(=O)N[C@@H](CO)C(=O)NCC(=O)N[C@@H](C)C(=O)N1CCC[C@H]1C(=O)N1CCC[C@H]1C(=O)N1CCC[C@H]1C(=O)N[C@@H](CO)C(N)=O [compound 186] |  |  | 9.23 | 9.99 |
